## Ab-14 heavy chain CDR variants: yeast mating affinities

Target peptide (SARS-CoV-2 spike, HR2 region): PDVDLGDISGINAS

Each scFv is VH, a 15-residue (Gly4Ser)3 linker, VL, as in the parent Ab-14, and differs from it in the CDRs of the heavy chain only.
VH: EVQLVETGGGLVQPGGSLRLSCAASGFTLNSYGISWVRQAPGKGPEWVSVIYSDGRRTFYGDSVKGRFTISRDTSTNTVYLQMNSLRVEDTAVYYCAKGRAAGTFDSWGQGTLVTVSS
VL: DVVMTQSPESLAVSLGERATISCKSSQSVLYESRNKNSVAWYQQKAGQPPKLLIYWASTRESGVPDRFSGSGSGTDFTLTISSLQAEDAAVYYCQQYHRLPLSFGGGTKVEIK

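Phage display of a naive human antibody library on the peptide gave the parent. This is the validation round: designs drawn from the data on random variants, tested in the same kind of assay. Their group label is 14H_GPLM_Gen (GPLM: also part of the Gaussian process libraries; Gen: genetic algorithm; a sequence that several methods proposed may carry one label only). The scFvs were displayed on barcoded MATa yeast, the peptide on MATalpha yeast. The frequency of each diploid, read from paired DNA barcodes, reflects how well the two displayed proteins bind. Scores were corrected for input abundance and mapped to Kd with protein pairs of known affinity run in the same pool. There are six technical replicates.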

The parent's heavy chain CDRs are GFTLNSYGIS, VIYSDGRRTFYGDSVK, GRAAGTFDS; each variant's own CDRs replace them letter for letter. Numbers give log10(Kd / nM), so 0 is 1 nM and 3 is 1 µM. Smaller is tighter. Where no diploid with the target was found in that replicate, the entry reads "nd": below detection, most likely a poor binder, though not proof of it. Nonspecific signal, from three strains lacking the peptide, appeared in 1% of pairings of all heavy chain designs, centred on 2.08 (5% of these signals below 0.84); values are not corrected for it. The control count says in how many pairings with the empty strains this scFv gave a signal, with their mean in brackets.

CDR-H1	CDR-H2	CDR-H3	log10 Kd (nM) by replicate	control signals
GFGLNSYGIS	VIYSDGRRTFYIDSVK	GRTAGTFDS	2.08 0.90 0.86 nd 0.53 1.65	1 of 18 (2.45)
GFSINSYGIS	VIYSDGRRTFYGDSVK	GQAAGTFDS	1.09 0.29 0.46 0.75 0.94 0.81	0 of 18
GFELNSYGIS	VIYADGRRTFYGDSVK	GTAAGTFDS	-0.32 -0.68 -0.59 -0.39 0.15 -0.34	0 of 18
GFTLNEYGIS	VIYSDGIRTFYGDSVK	GRTAGTFDT	0.19 0.25 0.61 0.24 0.06 0.45	1 of 18 (2.77)
GFTLDSYGIS	VIYSDGRRTFYGDSVK	GRLAGTFDS	1.39 0.78 1.53 1.30 0.79 0.92	1 of 18 (2.97)
GFSLNSYGIS	VIYSDGRRTFYDDSVK	GQAAGTFDS	0.08 0.07 1.22 0.29 -0.14 0.25	2 of 18 (1.86)
GFSLNEYGIS	VIYSDGRRTFYGDSVK	GQAAGTFDF	nd nd nd -1.66 -1.56 -1.85	0 of 18
GFSLNSYGIS	VIYSDGRRTFYGDSVK	GQAAGTFDA	1.08 0.92 0.34 0.56 0.72 0.80	0 of 18
GFTLLSYGIS	VIYADGRRTFYGDSVK	GKAAGTFDS	nd nd nd nd nd nd	0 of 18
GFSLNDYGIS	VIYSDGRRTFYGDSVK	GRLAGTFDS	0.13 0.09 -0.41 -0.36 -0.42 -0.12	0 of 18
SFTLNSYGIS	VIYADGRRTFYGDSVK	GKAAGTFDS	0.80 1.39 1.09 1.38 2.20 1.63	1 of 18 (1.68)
EFTLNSYGIS	VIYSDGRRTFYSDSVK	GEAAGTFDS	0.62 2.05 1.36 0.85 nd 1.41	0 of 18
GFSLNSYGIS	VIYADGRRTWYGDSVK	GRAAGTFDS	0.23 -0.05 -0.08 -0.05 0.33 0.12	0 of 18
KFSLNSYGIS	VIYSDGRRTFYGDSVK	GNAAGTFDS	2.83 2.66 1.63 3.14 2.51 3.38	1 of 18 (3.07)
GFSLNSYGIS	VIYSDGRRTFYGDAVK	GRTAGTFDS	1.01 0.55 0.37 0.11 0.69 0.14	0 of 18
GFVLNEYGIS	VIYSDGRRTFYGDSVK	GRTAGTFDS	0.65 0.84 0.94 0.83 0.53 0.79	0 of 18
GFTLNSYGIS	VIYADGRRTFYGDSVK	GEAAGTFDV	0.80 0.00 -0.06 -0.47 -0.05 0.06	0 of 18
GFSLNEYGIS	VIYSDGRRTFYGDDVK	GRTAGTFDS	0.05 0.33 0.25 -0.24 -0.40 0.47	0 of 18
GFTLNEYGIS	VIYSDGRRTFYGDSVK	GRIAGTFDT	nd -0.55 -0.14 nd -0.55 0.54	0 of 18
GFSLNSYGIS	VIYSDGRRTFYSDSVK	GEAAGTFDT	0.51 1.01 0.38 0.18 0.33 0.58	0 of 18
GFSLNSYGIS	VIYSDGRRTFYDDSVK	GWAAGTFDS	1.51 0.93 1.44 nd 2.29 nd	0 of 18
GFTLNSYGIS	VIYSDGRRTFYGDSVK	GSVAGTFDT	0.43 0.46 -0.13 -0.05 -0.14 0.27	0 of 18
GFILNEYGIS	VIYSDGRRTFYGDSVK	GRTAGTFDS	nd nd 1.38 nd 0.64 -0.13	0 of 18
GFSLNDYGIS	VIYSDGRRTFYADSVK	GRTAGTFDK	0.05 -0.60 -0.52 -0.73 -0.38 -0.42	1 of 18 (2.51)
GFHLNSYGIS	VIYSDGRRTFYTDSVK	GEAAGTFDS	nd 0.09 nd 0.56 nd 0.88	0 of 18
GFDLNSYGIS	VIYSDGRRTFYIDSVK	GRAAGTFDS	0.26 0.13 0.17 -0.19 0.09 0.05	1 of 18 (1.48)
GFTLNSYGIS	VIYSDGRRTFYGDSVK	GEAAGTFDT	nd nd nd nd nd nd	0 of 18
GFSLNSYGIS	VIYADGRRTFYGDSVK	GWAAGTFDS	-0.32 0.72 -0.13 0.03 0.29 0.06	0 of 18
GFSLNEYGIS	VIYSDGRRTFYGDAVK	GRTAGTFDS	0.44 -0.03 0.87 0.10 0.00 0.15	0 of 18
GFTLESYGIS	VIYSDGRRTFYDDSVK	GRAAGTFDS	0.94 0.40 0.92 2.04 nd nd	0 of 18
GFTLNSYGIS	VIYSDGRRTFYTDSVK	GREAGTFDT	-0.17 0.05 0.07 -0.24 -0.39 0.21	0 of 18
GFTLNSYGIS	VIYSDGWRTFYSDSVK	GKAAGTFDS	1.24 nd 3.08 1.05 2.39 1.59	1 of 18 (2.47)
GFELNKYGIS	VIYSDGRRTFYGDSVK	GQAAGTFDS	1.21 0.90 0.48 0.52 0.67 1.02	1 of 18 (2.03)
GFSLNSYGIS	VIYSDGRRTFYGDSVK	GKTAGTFDY	nd -1.11 -1.76 nd nd -1.35	0 of 18
GFSLNSYGIS	VIYSDGRRTFYGDSVK	GRTAGTFDQ	0.50 0.82 0.46 0.85 0.47 0.40	0 of 18
GFSLNSYGIS	VIYSDGRRTFYGDDVK	GEAAGTFDS	0.84 1.50 0.51 nd 0.32 0.52	0 of 18

The last 5 entries again:

| CDR-H1 | CDR-H2 | CDR-H3 | log10 Kd (nM) by replicate | control signals |
|---|---|---|---|---|
| GFTLNSYGIS | VIYSDGWRTFYSDSVK | GKAAGTFDS | 1.24 nd 3.08 1.05 2.39 1.59 | 1 of 18 (2.47) |
| GFELNKYGIS | VIYSDGRRTFYGDSVK | GQAAGTFDS | 1.21 0.90 0.48 0.52 0.67 1.02 | 1 of 18 (2.03) |
| GFSLNSYGIS | VIYSDGRRTFYGDSVK | GKTAGTFDY | nd -1.11 -1.76 nd nd -1.35 | 0 of 18 |
| GFSLNSYGIS | VIYSDGRRTFYGDSVK | GRTAGTFDQ | 0.50 0.82 0.46 0.85 0.47 0.40 | 0 of 18 |
| GFSLNSYGIS | VIYSDGRRTFYGDDVK | GEAAGTFDS | 0.84 1.50 0.51 nd 0.32 0.52 | 0 of 18 |

Of ten entries with the parent sequence, four were seen in most replicates (averages 0.34 to 2.37), three in one and three in none, so single entries are noisy. A sequence measured in both rounds can read differently, since the two assays cover different ranges. In the paper, a design with two or fewer of six values counts as a poor binder.

Data: MIT Lincoln Laboratory AlphaSeq set, Li et al. 2023, doi:10.1038/s41467-023-39022-2, as distributed in FLAb.